{"source": "ChEMBL document CHEMBL4706631", "about": "“Potent and Selective Mitogen-Activated Protein Kinase Kinase 1/2 (MEK1/2) Heterobifunctional Small-molecule Degraders” (J Med Chem, 2020)", "system": "SU-DHL-1", "test": "Antiproliferative activity against human SU-DHL-1 cells incubated for 3 days by WST8 assay", "type": "functional", "conditions": "SU-DHL-1, 72 h, time 3 day"}
{"smiles": "O=C(NOC[C@H](O)CO)c1ccc(F)c(F)c1Nc1ccc(I)cc1F", "note": "[MIRDAMETINIB]", "values": [{"measurement": "GI50", "value": 350, "unit": "nM"}]}
